The data set can be described thus: 5-h mouse PK study. It is filed as in vivo, CD-1 mice. The settings on record: 10 mg/kg p.o., data not shown.

Structures are written as SMILES.

As for `CCN(CCN)c1ccc(Nc2cc(NC3CC3)n3ncc(C#N)c3n2)cc1-n1cnnc1` [Compound 53, 5-((4-((2-Aminoethyl)(ethyl)amino)-3-(4H-1,2,4-triazol-4-yl)phenyl)amino)-7-(cyclopropylamino)pyrazolo[1,5-a]pyrimidine-3-carbonitrile], the oral bioavailability result is recorded as “no bioavailability”.

The values are drawn from article PMC11284802 (Journal of Medicinal Chemistry, 2024).
